## Yeast mating assay 1: variants of the scFv Ab-14

The measurements come from Engelhart et al. 2022 (doi:10.1038/s41597-022-01779-4) through the FLAb antibody collection.

Antigen: PDVDLGDISGINAS, a 14-residue peptide of the SARS-CoV-2 spike HR2 region.

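Phage display of a naive human antibody library on the peptide gave the parent. Variants in AAYL50 differ from the parent at up to three CDR positions; double and triple changes were sampled at random. The scFvs were displayed on barcoded MATa yeast, the peptide on MATalpha yeast. After mating in shaken culture at 30 °C for 16 h, diploids were selected and their barcode pairs sequenced. The ratio of observed to expected reads was calibrated, replicate by replicate, on BCL2-family standards whose Kd was known from biolayer interferometry. There are three technical replicates.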

Parent: Ab-14, a human scFv built as VH, a 15-residue (Gly4Ser)3 linker, VL. Only the CDRs of the light chain vary.
VH: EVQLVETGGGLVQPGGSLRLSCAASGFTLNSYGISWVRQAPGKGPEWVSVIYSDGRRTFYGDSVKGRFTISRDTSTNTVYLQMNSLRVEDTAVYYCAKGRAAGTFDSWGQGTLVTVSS
VL: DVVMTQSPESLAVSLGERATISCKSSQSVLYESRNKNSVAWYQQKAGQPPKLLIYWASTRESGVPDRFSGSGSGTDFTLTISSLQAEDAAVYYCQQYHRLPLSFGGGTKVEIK

Variants are written as CDR1, CDR2 and CDR3 of the light chain (limits as in the source). Parent: KSSQSVLYESRNKNSVA, WASTRES, QQYHRLPLS.
The read-out is the apparent dissociation constant on a log10 scale (nM): the lower, the stronger.
A pair that was not seen in that replicate is written "n.d."; this usually means weak binding, but a binder can also be missed.
As a blank, each scFv also met three strains without target: over library AAYL50, 18% of these pairings were detected, typically at 4.19 and seldom below 2.99. The control count says in how many pairings with the empty strains this scFv gave a signal, with their mean in brackets.

| CDR-L1 | CDR-L2 | CDR-L3 | log10 Kd (nM) by replicate | empty controls |
|---|---|---|---|---|
| KSSQSVLYTSRNKNSVE | WASTRES | QQYHRLPHS | 4.09 / n.d. / n.d. | 3/9 (4.74) |
| KSSQKVLYEGRNKNSVA | WASTRES | QQYHRLPVS | 4.85 / 2.31 / n.d. | 1/9 (4.34) |
| KSSQSVLYESRNKHSVA | WASTRMS | QQRHRLPLS | 1.83 / 1.71 / 1.94 | 1/9 (4.20) |
| KSSQSVAYESREKNSVA | WASTRES | QQYLRLPLS | 1.64 / 1.36 / 1.37 | 1/9 (4.06) |
| KSSQAWLYESRNKNSVA | WASTRES | QQDHRLPLS | n.d. / 3.22 / n.d. | 1/9 (3.40) |
| KSSQSVLYESRNKNSVA | WASCRES | QQSHRLPLS | n.d. / n.d. / n.d. | 3/9 (3.40) |
| KSSQSVLYESRNKNSVA | WASTHES | FQYTRLPLS | n.d. / n.d. / 3.86 | 1/9 (3.52) |
| KSSQHVLYESRNKNSVA | WASTRES | QQNHRLALS | 2.30 / 2.26 / 2.26 | 2/9 (4.52) |
| KSSQSVLYESRNKNSVA | WASTRES | QSYWRCPLS | 1.62 / 1.70 / 1.78 | 4/9 (4.08) |
| KSSQSVLYESRNKNSYA | WLSTRES | QQYHRLPHS | n.d. / n.d. / n.d. | 0/9 |
| KSSYSVLYESRNKNSVA | WWSTRES | QQYDRLPLS | n.d. / n.d. / n.d. | 0/9 |
| KSSQSVLYESRNKNSQA | WASDRES | QQGHRLPLS | n.d. / n.d. / n.d. | 1/9 (3.21) |
| KSSQSVLYTSRNKNSVA | WASTRED | NQYHRLPLS | 5.33 / n.d. / n.d. | 2/9 (3.28) |
| KSSPSVLYERRNKNSVA | WASTRES | QQYHRLPSS | n.d. / 3.55 / n.d. | 0/9 |
| KSSWSVLYESRNKNSVA | WASTRES | NFYHRLPLS | n.d. / 4.03 / n.d. | 3/9 (5.05) |
| KSSQSVSYESRNKNSMA | WASTRES | QQYHRLPLS | n.d. / n.d. / n.d. | 0/9 |
| KSSQSVLYESRNKNSNA | WASGGES | QQYHRLPLS | 4.88 / n.d. / n.d. | 1/9 (3.15) |
| KSSQSLLYESRNKNSVA | WASTRES | QQYHRLLWS | 0.00 / 0.52 / 0.37 | 0/9 |
| KSSQSVLYPSRNKNSVA | WASTRES | QQYHRLPLY | 0.87 / 1.16 / 1.16 | 8/9 (4.97) |
| KSSASVLYESRNKNSVA | WASTREE | QQRHRLPLS | n.d. / n.d. / n.d. | 0/9 |
| KSSQSVLYESRNKYSVA | WASTDHS | QQYHRLPLS | n.d. / n.d. / n.d. | 1/9 (2.70) |
| KSSQSSLYESRNKNSMA | WASTRES | QQYHRPPLS | n.d. / n.d. / n.d. | 0/9 |
| KSSWSVFYEMRNKNSVA | WASTRES | QQYHRLPLS | 2.06 / 1.97 / 2.06 | 2/9 (4.27) |
| KSQQSVLYESRNKNSVA | WGSTRES | QQYHRLPLS | 0.53 / 0.75 / 0.73 | 2/9 (5.50) |
| KSSQSVNYESRNKNSVA | WASTRES | EHYHRLPLS | 3.47 / n.d. / n.d. | 0/9 |
| KSSQSVLYEARNKNSWA | WASTRES | TQYHRLPLS | n.d. / n.d. / n.d. | 0/9 |
| KLSQSVLYESRNKNSVA | WASTRPS | QQYHRLFLS | n.d. / n.d. / n.d. | 0/9 |
| KSSQSVLFESRNKNSVA | WASTRES | QTYHRLPNS | 5.97 / 3.88 / 5.62 | 6/9 (4.50) |
| KYSQSVLYESRSKNSVA | WDSTRES | QQYHRLPLS | 2.34 / 2.71 / 3.55 | 0/9 |
| KSSQSALYESRNKNSVA | WASTREM | QQYGRLPLS | 0.54 / 0.82 / 0.67 | 4/9 (4.51) |
| KSSQSVLEESRNKNSVA | WASTRES | QQLHRLPWS | 0.58 / 0.79 / 0.75 | 6/9 (4.57) |
| KSSISVLYESRGGNSVA | WASTRES | QQYHRLPLS | 0.95 / 1.12 / 1.00 | 1/9 (3.21) |
| KSSQSVLYESQMKNSVA | WASTRSS | QQYHRLPLS | 0.64 / 0.83 / 0.85 | 1/9 (4.33) |
| KCSQSVLFESRNPNSVA | WASTRES | QQYHRLPLS | 0.12 / 0.39 / 0.19 | 0/9 |
| KSSQSRLYESRNKNSVA | WASTRES | QQYHRLPLS | n.d. / n.d. / n.d. | 1/9 (4.00) |
| KSSQSVLYEARNKNSVA | WASTRWS | QQYHWLPLS | 2.05 / 2.32 / 2.36 | 5/9 (4.26) |
| KSSQRVLYESRNKNSVA | WASIRES | QQYHRLCLS | 1.10 / 1.26 / 1.28 | 0/9 |
| KSSQHVLYESRNKNSVA | WFSTRES | QQVHRLPLS | n.d. / n.d. / n.d. | 2/9 (4.77) |
| KSSQSVLYESRNKNSVN | LASTREH | QQYHRLPLS | n.d. / n.d. / n.d. | 0/9 |
| ISSQSVLYETRNKNSVA | WAATRES | QQYHRLPLS | 2.50 / 2.47 / 2.69 | 8/9 (4.90) |

Repeated from above, the 2 best binders with a signal in all replicates:

| CDR-L1 | CDR-L2 | CDR-L3 | log10 Kd (nM) by replicate | empty controls |
|---|---|---|---|---|
| KCSQSVLFESRNPNSVA | WASTRES | QQYHRLPLS | 0.12 / 0.39 / 0.19 | 0/9 |
| KSSQSLLYESRNKNSVA | WASTRES | QQYHRLLWS | 0.00 / 0.52 / 0.37 | 0/9 |